This is an account of results in paper PMC6609550, “Blockade of the forward Na^+/Ca^2+ exchanger suppresses the growth of glioblastoma cells through Ca^2+‐mediated cell death” (British Journal of Pharmacology, 2019).

Molecules are shown by their SMILES.

Assay [1] deals with U87 cells. Put plainly: Annexin V–FITC/PI apoptosis assay of U87 cells. The format is cell-based, Human. As for the experimental part:
(§1) U87 cells were seeded in six‐well plates (Corning, Corning, NY, USA) with 1 × 10^6 cells per well and treated with NCX blockers, BAPTA‐AM, or MAPK inhibitors. Drug treatment was performed by the person who is blinded to the experimental groups. After treatment, cells were harvested in 15‐ml tubes and washed with cold sterile PBS. After being centrifuged, cells were fixed with 70% ethanol […] at 4°C for at least 1 hr. For propidium iodide (PI) staining, cells were washed one time with PBS and then were treated with ribonuclease A (RNase; 100 μg·ml^−1) for 30 min. PI (10 μg·ml^−1) was added, and stained cells were kept in the dark at 4°C until analysis. The number of cells analysed for each sample was 10,000 events. FACS analysis was performed using the Coulter CytoFlexS flow cytometer (Beckman Coulter, CA, USA), and the percentage of cells in the G0/G1, S, and G2/M phases was determined using cell cycle analysis software, ModFit LT 5.0 (Verity Software House, Topsham, ME, USA). […] Apoptosis was analysed by Coulter CytoFlexS flow cytometer (Beckman Coulter) for at least 10,000 events, and data were analysed with the software, CyExpert 2.0 (Beckman Coulter).

Assay [2] has as its system U87 cells. As to the kind of experiment: Cell cycle assay (PI staining, flow cytometry) of U87 cells. The format is cell-based, Human. As for the experimental part: as §1

`O=[N+]([O-])c1ccc(-c2nc(-c3ccncc3)c(-c3ccc(F)cc3)[nH]2)cc1` [PD169316]: in assay [1], the “Effect on apoptosis (Annexin V+ cells), compound alone” value is listed as “did not activate apoptosis” and the “Effect on bepridil-induced apoptosis” value is given as “not”. In addition, the “Effect on bepridil-induced G0/G1 cell cycle arrest” value in assay [2] is reported as “prevented”.
